# Screening results as filed in PubChem.
# Compounds with a hit are over-represented: about 2.8% of the library has one in this group of screens.
# PglD inh: blocks C. jejuni PglD acetyltransferase activity | purified PglD enzyme, DTNB colorimetric CoA detection | inhibition, % at 12.5 µM | 0.098% of 360,000 active; in the data active = inhibition above about 16%, passing the limit was not always enough; inconclusive = no clear call, values can overlap the other calls
# Yeast UUG start: modulators of start codon recognition fidelity in yeast; AID 602363; hit rate 0.13% among 350,000; activity score, % at 18.7 µM; S. cerevisiae UUG-firefly luciferase reporter, luminescence/redox ratio;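 active = replicate mean at a twofold rise or more, about +100% in these data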;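 note: firefly luciferase made from a UUG start codon reports start codon fidelity; reporter light over untreated wells divided by growth signal over untreated wells; some hits fall short of that in this replicate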
# Statin myotox sup: suppressors of simvastatin-induced myotoxicity in C2C12 myotubes | 0.78% of 330,000 active | AID 602340 | ATP luminescence, 48 h; scaled: DMSO 0, geranylgeraniol control 100 | rescue of ATP level, % at 7.49 µM;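 active = mean ATP rescue above about 67%, or every replicate alone reaching that limit, limit read from the data, passing the limit was not always enough; inconclusive = no clear call, values can overlap the other calls; inactive = mean under the limit and some replicate under it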;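 note: myotubes were challenged with 10 µM simvastatin during compound exposure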
# E-sel inducer: induces E-selectin expression in human endothelial cells; HUVEC E-selectin immunofluorescence imaging; normalized: neutral wells 0, TNF-alpha wells 100; activation, % at 7.58 µM; 0.37% of 260,000 active;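 active = mean E-selectin-positive cell signal at least 10% of the positive control, reached in at least 60% of replicates, without over 20% cell loss; inconclusive = no rule given, readout overlaps actives, possibly toxicity-flagged; inactive = the rest, including those meeting only one limit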
#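 Material: HUVEC primary endothelial cells; Amount: 3,000 cells per well; Dosing: single concentration; Medium: EGM-2 growth medium on 0.1% gelatin-coated wells; Read-out basis: percent E-selectin-positive cells; Signal: immunofluorescence imaging; Control set: TNF-alpha, DMSO.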
# esBAF inh: SWI/SNF esBAF complex inhibition. 2% of 350,000 active. mouse ES cells, Bmi1-luciferase knock-in reporter, 24 h; 100% = twice the neutral-well signal. AID 602393. reporter increase, % at 12.5 µM; in the data active = activation above about 40%; inconclusive = no clear call, values can overlap the other calls;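 note: a rise in the Bmi1 reporter signal indicates esBAF inhibition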
# PGC1a acetyl inh: PGC1a acetylation modulation, inhibitor mode | U2OS PGC1a acetylation, AlphaScreen anti-acetyl-lysine; with virally co-expressed GCN5 acetyltransferase | inhibition, % at 15.6 µM | 0.17% of 350,000 active | AID 651687;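 active = every replicate shows inhibition of at least 40%; inconclusive = mean inhibition at least 40% but some replicate below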
# A number is an active result; 0 = inactive; ? = inconclusive; - = no result given.
SMILES,PglD inh,Yeast UUG start,Statin myotox sup,E-sel inducer,esBAF inh,PGC1a acetyl inh
Cc1cccc(S(=O)(=O)N2CC[C@@H]3[C@@H](CO)Nc4ccc(C#Cc5ccccc5F)cc4[C@@H]32)c1,0,0,0,0,0,0
CO[C@H]1CN(C)C(=O)c2cc(NC(=O)C3CC3)ccc2OC[C@@H](C)N(C(=O)C2CCOCC2)C[C@H]1C,-,-,0,0,0,0
Cc1c(C(=O)O)oc2c(F)cccc12,0,0,-,-,-,0
Cc1c(C(=O)N2C[C@@H](C)O[C@@H](C)C2)oc2c(F)cccc12,0,0,0,0,69.5,0
COc1ccc2oc(C(=O)NC3CCCCC3)c(C)c2c1,0,0,0,-,?,0
Cc1c(C(=O)NC2CCOC2)oc2c(F)cccc12 (stereo not drawn),0,0,0,-,69.5,0
Cc1c(C(=O)NC2CCCCC2)oc2ccc(F)cc12,0,0,0,0,42.6,0
CCC(=O)N1C[C@@H]2[C@H](c3ccccc31)[C@@H](CO)N2C(=O)Nc1ccccc1F,0,0,0,0,0,0
COc1ccc(NC(=O)Nc2ccc3c(c2)CC(=O)N([C@H](C)CO)C[C@H](C)[C@@H](CN(C)Cc2ccc(Oc4ccccc4)cc2)O3)cc1,0,0,0,0,0,0
COCC(=O)Nc1ccc2c(c1)OC[C@@H](C)N(CC1CC1)C[C@H](C)[C@H](OC)CN(C)C2=O,0,-,0,0,0,0
CCCNC(=O)C[C@@H]1CC[C@@H]2[C@H](COC[C@H](O)CN2C(=O)CC)O1,0,-,0,0,0,0
COc1cccc(-c2nnc(-c3ccc4ccccc4c3)o2)c1,0,0,0,0,-,0
COc1cccc(-c2nnc(-c3ccc(C(F)(F)F)cc3)o2)c1,0,0,0,-,54.9,0
CC1CCN(c2nc3ccc(C(=O)NCCCN4CCCCC4C)cc3s2)CC1 (stereo not drawn),0,0,0,0,72.2,0
CC1CCCC(C)N1CCCNC(=O)c1ccc2nc(N3CCCCC3)sc2c1 (stereo not drawn),0,0,0,0,72.1,0
CCC1CCCCN1CCCNC(=O)c1ccc2nc(N3CCCCC3)sc2c1 (stereo not drawn),0,0,0,-,?,0
COC(=O)C[C@H]1CC[C@H]2[C@@H](COC[C@@H](O)CN2S(=O)(=O)c2ccccc2C)O1,0,0,0,0,0,0
CC(=O)N1CC2(C1)[C@H](c1ccc(-c3ccc(C#N)cc3)cc1)[C@@H](CO)N2CCC(F)(F)F,-,-,-,0,-,-
Cc1ccc(S(=O)(=O)N(C)C[C@@H]2OCCCC[C@H](C)Oc3ccc(NC(=O)C4CCCCC4)cc3C(=O)N([C@@H](C)CO)C[C@H]2C)cc1,0,0,0,0,0,0
C=CCN1C(=O)S/C(=C\c2ccc3c(c2)n(C)c(=O)n3C)C1=O,0,0,0,0,0,0
CCOC(=O)CN1C(=O)S/C(=C/c2ccc3c(c2)n(C)c(=O)n3C)C1=O,-,-,0,-,45.8,-
Nc1c(C(=O)Nc2ccccc2)sc2nc(-c3cccnc3)ccc12,-,-,-,0,-,-
Nc1c(C(=O)N2CCCC2)sc2nc(-c3ccccc3)ccc12,-,-,0,-,69.0,-
Nc1c(C(=O)N2CCCCC2)sc2nc3c(cc12)CCCC3,0,0,0,-,54.1,-
COc1ccc(-c2cnc3c(c2)C(=O)N([C@@H](C)CO)C[C@@H](C)[C@H](CN(C)C(=O)C2CC2)O3)cc1,-,0,0,0,0,-
SMILES,PglD inh,Yeast UUG start,Statin myotox sup,E-sel inducer,esBAF inh,PGC1a acetyl inh
COc1ccc(-c2cnc3c(c2)C(=O)N([C@H](C)CO)C[C@@H](C)[C@H](CN(C)S(=O)(=O)c2ccc(OC)cc2)O3)cc1,-,-,0,0,-,0
COc1ccc(-c2cnc3c(c2)C(=O)N([C@H](C)CO)C[C@@H](C)[C@@H](CN(C)C(=O)Nc2c(C)noc2C)O3)cc1,0,0,0,0,0,43.5
COc1ccc(-c2cnc3c(c2)C(=O)N([C@H](C)CO)C[C@H](C)[C@@H](CN(C)C(=O)C2CC2)O3)cc1,-,0,0,0,0,111.1
COc1ccc(-c2cnc3c(c2)C(=O)N([C@H](C)CO)C[C@H](C)[C@H](CN(C)S(=O)(=O)c2ccc(F)cc2)O3)cc1,0,0,101.8,0,0,0
Cc1ccc(C(=O)N2CCc3ccccc32)cc1,0,0,0,-,51.0,0
O=C(c1cc(-c2ccc(F)cc2)on1)N1CCCc2ccccc21,0,0,0,0,0,0
O=C(c1cc2cc(F)ccc2[nH]1)N1CCc2ccccc21,0,0,0,0,63.3,-
O=C(c1cc2cc(Br)ccc2[nH]1)N1CCc2ccccc21,0,0,0,-,0,0
Cc1ccc(-c2cc(C(=O)N3CCCc4ccccc43)no2)cc1,0,0,0,0,71.8,0
O=C(c1ccc(Cl)cc1)N1CCc2ccccc21,0,0,0,-,0,-
O=C(CCN1CCCCC1)NCC[C@@H]1CC[C@@H](NC(=O)C2CCOCC2)[C@@H](CO)O1,0,0,0,0,0,0
CCCNC(=O)[C@@H]1[C@@H](CO)[C@@H]2Cn3c(cccc3=O)[C@@H]2N1Cc1ccccc1Cl,0,-,0,0,0,-
COC(=O)COc1cc(C)cc2oc(=O)c(CC(=O)OC)c(C)c12,0,0,108.4,-,0,0
COC(=O)COc1cc(OCC(=O)OC)c2c(C)c(Cl)c(=O)oc2c1,-,-,-,0,-,-
CCOC(=O)c1cnc(-n2nc(C)cc2C)nc1NC1CCCC1,0,0,-,0,-,0
CCOC(=O)c1cnc(-n2nc(C)cc2C)nc1N(C)C,0,0,0,0,44.1,0
Brc1ccccc1-n1nnc(-c2cnc3ccccc3c2)n1,0,0,0,0,?,-
Cc1ccc(-n2nnc(-c3cccnc3Cl)n2)cc1,0,0,0,0,0,0
Clc1ncccc1-c1nnn(-c2ccccc2Br)n1,0,0,0,0,50.1,0
Clc1ccc(-n2nnc(-c3cccnc3Cl)n2)cn1,0,0,0,0,52.2,0
COc1ncccc1-c1nnn(-c2ccc(Cl)nc2)n1,0,0,0,0,0,-
Clc1nc2ccccc2cc1-c1nnn(-c2ccccc2Br)n1,0,0,0,0,41.2,-
CCOc1[nH]n(-c2ccccc2)c(=O)c1C=Nc1ccc(Cl)cc1,0,0,119.6,-,0,0
CCOc1[nH]n(-c2ccccc2)c(=O)c1C=Nc1ccccc1,0,0,0,-,0,-
C[C@@H]1CN([C@@H](C)CO)C(=O)CCCn2cc(nn2)CO[C@@H]1CN(C)C(=O)Nc1ccnc(N2CCOCC2)c1,0,0,0,0,0,0
C[C@H]1CCCCO[C@H](CN(C)C(=O)Cc2ccccc2)[C@@H](C)CN([C@@H](C)CO)C(=O)c2cc(NS(=O)(=O)c3cn(C)cn3)ccc2O1,0,0,0,0,0,0
C=CCNc1nc(C(=O)OC(C)C(=O)c2ccc(C)cc2)cs1 (stereo not drawn),0,0,0,-,56.8,0
C=CCNc1nc(C(=O)OCC(=O)c2ccc(F)cc2)cs1,0,0,0,0,0,0
